Data set [1] relates to Staphylococcus aureus ATCC 43300. The format is cell-based. Conditions: S. aureus ATCC 43300; CLSI procedure, triplicate. The protocol: (§1) The minimal inhibitory concentrations (MICs) assay was performed according to the CLSI procedures with the final peptide concentrations of 256, 128, 64, 32, 16, 8, 4, 2, 1, and 0.5 μg/mL, respectively. All tests were conducted in triplicate.

For data set [2], the system named is Escherichia coli ATCC 25922. Type of data set: cell-based. The settings on record: CLSI procedure, triplicate. The protocol:
as §1

The subject of data set [3] is Salmonella enterica ATCC 13076. The experiment in a line: Minimal inhibitory concentration (MIC). Type of data set: cell-based. The settings on record: CLSI procedure, triplicate. The protocol:
as §1

The test system of data set [4] is Pseudomonas aeruginosa CICC 20625. The experiment in a line: Minimal inhibitory concentration (MIC). Type of data set: cell-based. The settings on record: CLSI procedure, triplicate. As for the experimental part: as §1
Data set [5] deals with mouse red blood cells (MRBCs). The settings on record: cited from earlier work. From the text:
Table 4 Expression level and druggability of FNZ and NZ2114. | column: NZ2114

The test system of data set [6] is RAW264.7 cells. The settings on record: at 128 μg/mL; cited from earlier work. From the text:
Table 4 Expression level and druggability of FNZ and NZ2114. | column: NZ2114 || Maximizing antibacterial activity of AMPs with minimal host toxicity is an attractive direction. A hemolysis test is mainly used to detect the rupture of red blood cells and determine whether drugs are harmful in vivo [54]. […] The π–π stacking b ...

Data set [7] has as its system S. aureus CVCC 546. Type of data set: cell-based, Staphylococcus aureus. Conditions: CLSI procedure, triplicate. As for the experimental part: as §1
Data set [8] has as its system S. aureus ATCC 25923. The format is cell-based, Staphylococcus aureus. The settings on record: CLSI procedure, triplicate. As for the experimental part:
as §1

We go through one molecule from publication PMC10135057, “Molecular Modification of Kex2 P1’ Site Enhances Expression and Druggability of Fungal Defensin” (Antibiotics, 2023).

Values after ≈ are worked out from the molar mass of the structure shown. Marks after values point to notes of the source that are not given here. A value given as a limit tells only on which side of the number the result lay.

`CC[C@H](C)[C@@H]1NC(=O)[C@H](CO)NC(=O)[C@H](CCCCN)NC(=O)[C@@H]2CSSC[C@@H](C(=O)N[C@@H](Cc3ccc(O)cc3)C(=O)O)NC(=O)[C@H](CCCCN)NC(=O)[C@@H]3CSSC[C@H](NC(=O)[C@H](CCCNC(=N)N)NC(=O)[C@H](CC(C)C)NC(=O)[C@H](CC(=O)O)NC(=O)[C@H](CC(=O)O)NC(=O)[C@H](CCC(=O)O)NC(=O)[C@H](CC(N)=O)NC(=O)[C@H](Cc4c[nH]c5ccccc45)NC(=O)[C@@H]4CCCN4C(=O)CNC(=O)[C@H](CC(N)=O)NC(=O)[C@@H](NC(=O)CNC(=O)[C@H](Cc4ccccc4)NC(=O)CN)CSSC[C@H](NC(=O)[C@H](Cc4ccc(O)cc4)NC(=O)CNC(=O)CNC(=O)[C@H](CCCCN)NC(=O)[C@H](Cc4ccc(O)cc4)NC(=O)CNC(=O)[C@H](CCCCN)NC1=O)C(=O)N[C@@H](C)C(=O)N[C@@H](CCCCN)C(=O)NCC(=O)NCC(=O)N[C@@H](Cc1ccccc1)C(=O)N[C@@H](C(C)C)C(=O)N3)C(=O)N[C@@H](Cc1c[nH]cn1)C(=O)N[C@@H](CC(N)=O)C(=O)N[C@@H](Cc1c[nH]cn1)C(=O)N2` [NZ2114]: the minimum inhibitory concentration (MIC) in data set [1] was 0.91 µM (≈ 4.01 µg/mL); in data set [2] it was >28.97 µM; in data set [3], >28.97 µM; in data set [4] it was >28.97 µM; in data set [7] it was 1.81 µM (≈ 7.98 µg/mL); in data set [8], 0.91 µM (≈ 4.01 µg/mL). The Hemolysis entry in data set [5] is recorded as “Less than 0.1% ^b”. The “Cell viability (survival)” value in data set [6] is 52.13%.

In general, MIC refers to the lowest concentration that inhibits growth of the organism. Read a high MIC as weaker potency.
